Data: patent publication US20240261333A1, “NOVEL TARGETS FOR ENHANCING ANTI-TUMOR IMMUNITY” (THE BROAD INSTITUTE, INC., priority 2021, published 2024)

What was measured:
HSPH1 = HSPH1 (UniProt Q92598); experiment: co-IP, IgG control, lysate of N-FLAG B3GNT2 cells, mass spectrometry
SEC16A = SEC16A (UniProt O15027); experiment: as above
CSPG4 = CSPG4 (UniProt Q6UVK1); experiment: as above
PSMA1 = PSMA1 (UniProt P25786); experiment: as above
NCL = NCL (UniProt P19338); experiment: as above
HSPA5 = HSPA5 (UniProt P11021); experiment: as above
TRIM28 = TRIM28 (UniProt Q13263); experiment: as above
SLC25A3 = SLC25A3 (UniProt Q00325); experiment: as above
CEP170 = CEP170 (UniProt Q5SW79); experiment: as above
CALM2 = CALM2 (UniProt P0DP24); experiment: as above
HLA-A = HLA-A (UniProt P04439); experiment: as above
ABCF1 = ABCF1 (UniProt Q8NE71); experiment: as above
DPM1 = DPM1 (UniProt O60762); experiment: as above
ALDOA = ALDOA (UniProt P04075); experiment: as above
TM9SF3 = TM9SF3 (UniProt Q9HD45); experiment: as above
SRSF7 = SRSF7 (UniProt Q16629); experiment: as above
PRR4 = PRR4 (UniProt Q16378); experiment: as above
OS9 = OS9 (UniProt Q13438); experiment: as above
LAMB1 = LAMB1 (UniProt P07942); experiment: as above
LRP2 = LRP2 (UniProt P98164); experiment: as above
RPL29 = RPL29 (UniProt P47914); experiment: as above
LOXL4 = LOXL4 (UniProt Q96JB6); experiment: as above
CNP = CNP (UniProt P09543); experiment: as above
TNC = TNC (UniProt P24821); experiment: as above
PPIB = PPIB (UniProt P23284); experiment: as above
SERPINE2 = SERPINE2 (UniProt P07093); experiment: as above
MAP1B = MAP1B (UniProt P46821); experiment: as above
LRPPRC = LRPPRC (UniProt P42704); experiment: as above
SLC25A1 = SLC25A1 (UniProt P53007); experiment: as above
RBMX = RBMX (UniProt P38159); experiment: as above
MYO1D = MYO1D (UniProt O94832); experiment: as above
PSMA4 = PSMA4 (UniProt P25789); experiment: as above
RAB1B = RAB1B (UniProt Q9H0U4); experiment: as above
SLC25A10 = SLC25A10 (UniProt Q9UBX3); experiment: as above
SMN1 = SMN1 (UniProt Q16637); experiment: as above
RNASE1 = RNASE1 (UniProt P07998); experiment: as above
GNAS = GNAS (UniProt Q5JWF2); experiment: as above
ACTG1 (human) [1] = target: ACTG1 (human) (UniProt P63261); experiment: co-IP, IgG control, lysate of cells with C-FLAG B3GNT2; mass spectrometry
ACTG1 (human) [2] = target: ACTG1 (human) (UniProt P63261); experiment: co-IP, IgG control, lysate of cells with N-FLAG B3GNT2; mass spectrometry

## IgG control (Millipore Sigma 12-371) (antibody)
HSPH1
  co-IP/MS count: 0
SEC16A
  co-IP/MS count: 0
CSPG4
  co-IP/MS count: 0
PSMA1
  co-IP/MS count: 0
NCL
  co-IP/MS count: 0
HSPA5
  co-IP/MS count: 9
TRIM28
  co-IP/MS count: 0
SLC25A3
  co-IP/MS count: 0
CEP170
  co-IP/MS count: 0
CALM2
  co-IP/MS count: 0
HLA-A
  co-IP/MS count: 0
ABCF1
  co-IP/MS count: 0
DPM1
  co-IP/MS count: 0
ALDOA
  co-IP/MS count: 0
TM9SF3
  co-IP/MS count: 0
SRSF7
  co-IP/MS count: 0
PRR4
  co-IP/MS count: 0
OS9
  co-IP/MS count: 0
LAMB1
  co-IP/MS count: 0
LRP2
  co-IP/MS count: 0
RPL29
  co-IP/MS count: 0
LOXL4
  co-IP/MS count: 0
CNP
  co-IP/MS count: 0
TNC
  co-IP/MS count: 0
PPIB
  co-IP/MS count: 0
SERPINE2
  co-IP/MS count: 0
MAP1B
  co-IP/MS count: 0
LRPPRC
  co-IP/MS count: 0
SLC25A1
  co-IP/MS count: 0
RBMX
  co-IP/MS count: 0
MYO1D
  co-IP/MS count: 0
PSMA4
  co-IP/MS count: 0
RAB1B
  co-IP/MS count: 0
SLC25A10
  co-IP/MS count: 0
SMN1
  co-IP/MS count: 0
RNASE1
  co-IP/MS count: 0
GNAS
  co-IP/MS count: 0
ACTG1 (human) [1]
  co-IP mass spectrometry count: 71
ACTG1 (human) [2]
  co-IP mass spectrometry count: 103
